{
  "sequences": {"note": "Protein sequences, listed by entry. Tags and fused reporters are not part of them. Lines headed by an entry give the natural chain unless they say otherwise; changes in a name come on top.", "UniProt P43116": "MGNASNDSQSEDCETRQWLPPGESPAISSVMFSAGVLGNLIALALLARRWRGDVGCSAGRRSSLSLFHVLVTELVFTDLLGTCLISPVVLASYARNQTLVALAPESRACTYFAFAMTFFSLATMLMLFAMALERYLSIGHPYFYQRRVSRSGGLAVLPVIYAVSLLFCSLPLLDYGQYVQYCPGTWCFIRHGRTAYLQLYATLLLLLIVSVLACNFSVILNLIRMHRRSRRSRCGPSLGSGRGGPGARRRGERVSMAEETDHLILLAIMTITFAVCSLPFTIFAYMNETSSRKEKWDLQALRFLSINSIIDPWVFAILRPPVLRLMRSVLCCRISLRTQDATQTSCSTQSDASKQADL"},
  "source": "patent US7612082B2",
  "about": "“Prostaglandin EP4 antagonists” (Allergan, Inc., priority 2004, dated 2009)",
  "molecular_target": "T1, hEP2 (Homo sapiens, UniProt P43116)",
  "T1 construct": "expressed in transfected cells; host or cells: HEK (by analogy HEK-293(EBNA))",
  "experiment": "Calcium signal (FLIPR) assay, hEP2 (HEK)",
  "format": "cell-based",
  "details": "agonist potency, cells coexpress chimeric Gqs5, read-out: Standard agonist hEP2 (HEK)",
  "method": "Cells were then washed twice with HBSS-HEPES buffer (Hanks Balanced Salt Solution without bicarbonate and phenol red, 20 mM HEPES, pH 7.4) using a Denley Cellwash plate washer (Labsystems; Franklin, Mass.). After 45-60 min of dye-loading in the dark using the calcium-sensitive dye Fluo-4 AM, at a final concentration of 2 μM, plates were washed four times with HBSS-HEPES buffer to remove excess dye and leaving 100 μl buffer in each well. Plates were then placed into a FLIPR™ instrument and were allowed to equilibrate at 37° C. Drug solution was added in a 50 μl volume to each well to give the desired final concentration. Cells were excited with an Argon laser at 488 nm, and emission was measured through a 510-570 nm bandwidth emission filter (FLIPR™, Molecular Devices, Sunnyvale, Calif.). The peak increase in fluorescence intensity was recorded for each well. […] A similar analysis was carried out for the other prostaglandin receptors, and for compound 2.",
  "data": [
    {"smiles": "CCCCC[C@H](O)/C=C/[C@H]1[C@H](O)CC(=O)[C@@H]1C/C=C\\CCCC(=O)O", "note": "[PGE2, Prostaglandin E2, reference compound]", "values": [
      {"measurement": "EC50", "result": 2.5, "unit": "nM"}
    ]}
  ]
}
